Columns and labels:
MS = conditions: cited from earlier work
[1] = system: animal models of MS and neuroprotection; assay: Accepted animal models of MS and neuroprotection (Table 2); set-up: concentration or dose not given beside the values; conditions: in vivo

## interferon beta-1a [AVONEX ®]
MS; MS clinical studies
  % Relapses eduction: 32%
MS; MS clinical studies, gadolinium-enhancing MRI lesions
  % lesion reduction: 57%
MS; human, in vivo
  potential side effects: Infection, seizure liver

B1: IFN-β: beta interferon, approved MS therapy (protein, UniProt P01574 22-187, looked up)
Interferon beta: MSYNLLGFLQRSSNFQCQKLLWQLNGRLEYCLKDRMNFDIPEEIKQLQQFQKEDAALTIYEMLQNIFAIFRQDSSSTGWNETIVENLLANVYHQINHLKTVLEEKLEKEDFTRGKLMSSLHLKRYYGRILHYLKAKEYSHCAWTIVRVEILRNFYFINRLTGYLRN
[1]
  % Inhibition Clinical Score: 38%
  % Inhibition Demyelination: 29%
  % Inhibition Inflammation: 28%

Source: US20150174144A1, “TETRACYCLINE COMPOUNDS FOR TREATING NEURODEGENERATIVE DISORDERS” (PARATEK PHARMACEUTICALS, INC., priority 2012, published 2015)
